Here are results for one compound from patent publication US20200061212A1, “SOLID ORAL COMPOSITION CONTAINING DYES” (COSMO TECHNOLOGIES LTD., priority 2016, published 2020).

Protein sequences, listed by entry. Tags and fused reporters are not part of them. Lines headed by an entry give the natural chain unless they say otherwise; changes in a name come on top.
UniProt Q8TCC7: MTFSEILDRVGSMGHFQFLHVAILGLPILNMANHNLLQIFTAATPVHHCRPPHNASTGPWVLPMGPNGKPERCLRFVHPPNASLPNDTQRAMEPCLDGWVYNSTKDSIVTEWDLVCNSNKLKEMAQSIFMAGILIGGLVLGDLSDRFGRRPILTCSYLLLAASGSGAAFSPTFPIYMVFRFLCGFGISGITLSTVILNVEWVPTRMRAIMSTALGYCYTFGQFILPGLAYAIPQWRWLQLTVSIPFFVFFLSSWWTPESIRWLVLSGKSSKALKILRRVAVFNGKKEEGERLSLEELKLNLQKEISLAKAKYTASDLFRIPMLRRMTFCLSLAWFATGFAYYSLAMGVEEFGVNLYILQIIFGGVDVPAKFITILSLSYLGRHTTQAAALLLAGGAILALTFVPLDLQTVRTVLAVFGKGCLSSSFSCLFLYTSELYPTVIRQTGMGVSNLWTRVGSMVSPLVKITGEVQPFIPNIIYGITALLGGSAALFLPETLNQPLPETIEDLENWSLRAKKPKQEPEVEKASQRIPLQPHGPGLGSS

In this data set the target is OAT3 (Homo sapiens, UniProt Q8TCC7). To be noted: in vitro studies.

Turning to `CN(C)c1ccc2nc3ccc(=[N+](C)C)cc-3sc2c1` [Methylene blue, Methylthioninium Chloride (Methylene Blue)], the “substrate of the membrane transport protein OAT3” value is listed as “possible substrate”.
